60 compounds from PubChem BioAssay AID651965 (National Center for Advancing Translational Sciences (NCATS), 2013) can be followed below.

The chains behind the UniProt entries cited, without tags or fusion partners.
UniProt P80244, whole entry: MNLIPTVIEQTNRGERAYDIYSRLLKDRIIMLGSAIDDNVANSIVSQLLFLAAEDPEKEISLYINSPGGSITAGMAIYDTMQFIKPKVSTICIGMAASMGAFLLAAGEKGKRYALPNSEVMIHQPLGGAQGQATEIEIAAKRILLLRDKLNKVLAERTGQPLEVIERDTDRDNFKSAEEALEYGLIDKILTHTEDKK

The list shows a part of the results, in another mix than the full data. Results filed as inconclusive are left out. Calls of active or inactive are those of the source. The call rests on the fitted dose curve; in most records, active means well fitted falling curve with a large enough effect; inconclusive means small, poorly fitted or top-dose-only effect; inactive means no such curve, though single readings can be large or run the other way.

For the test, the target named is ATP-dependent Clp protease proteolytic subunit (Bacillus subtilis (strain 168)) (UniProt P80244). As to the kind of experiment: qHTS Assay for Activators of ClpP. Further: the source files actives as falling curves though it sought activators and does not explain the sign; nearly all actives have a fitted effect of over 65% in size. Particulars: purified B. subtilis ClpP, FRET peptide cleavage, 20 min; at 57.5 µM (top of the series).
For the compound `CCOC(=O)c1ccc(NP(C)(=O)Oc2ccc(F)cc2)cc1` (stereo not given), the activity change, negative = active is inactive: 1.01%.
Consider `O=[N+]([O-])c1cc([N+](=O)[O-])c2nc[nH]c2c1`, for which the activity change, negative = active was inactive: -0.404%.
The result for `CC(NC(=O)COC(=O)C(O)(c1ccccc1)c1ccccc1)c1ccccc1` (stereo not given) reads inactive: -0.526%.
The result for `Cc1ccccc1OP(=O)(Nc1ccccn1)Oc1ccccc1C` reads inactive: 0.231%.
Take `CP(=O)(Nc1ccccc1)Oc1ccc(F)cc1` (stereo not given): the activity change, negative = active is inactive: -0.682%.
Then `O=C(OC1CN2CCC1CC2)c1ccccc1` (stereo not given), with inactive: 35.3%; and `CCN(CC)CCCOC(=O)C(O)(c1ccccc1)C1CCCCC1` (stereo not given), with inactive: 1.14%.
Take `CCC(=O)N1C2C3N(C(=O)CC)C1C1N(C(=O)CC)C(C(N1C(=O)CC)N3C(=O)CC)N2C(=O)CC`: the activity change, negative = active was inactive: 1.02%.
The result for `Cc1c([N+](=O)[O-])cc([N+](=O)[O-])c(Br)c1[N+](=O)[O-]` reads inactive: 1.19%; that for `COC(=O)c1cc2c(s1)N=C(c1ccccc1)N(C)P2(=O)N1CCOCC1` (stereo not given), inactive: -0.544%; that for `CC(=O)NC(SC(=S)N(CC(C)C)CC(C)C)C(Cl)(Cl)Cl` (stereo not given), inactive: -18.5%.
Take `CC(C)c1ccc(OP(C)(=O)Nc2ccc(SC(F)(F)F)cc2)cc1` (stereo not given): the activity change, negative = active was inactive: 2.2%.
Then `CP(=O)(Nc1ccccc1F)Oc1ccccc1` (stereo not given), with inactive: 0.0304%.
Consider `O=P1(Nc2nc3ccc(Cl)cc3s2)COc2ccccc2O1` (stereo not given), for which the activity change, negative = active is inactive: 9.52%.
In the case of `CCOc1ccc(C2=NCC(CBr)S2)cc1` (stereo not given), the activity change, negative = active was inactive: -0.416%.
Then `CC(=O)Nc1ccc(Oc2c([N+](=O)[O-])cc([N+](=O)[O-])cc2[N+](=O)[O-])cc1`, with inactive: 0.233%; and `Cc1ccccc1CN(C)C(=O)COC(=O)C(O)(c1ccccc1)c1ccccc1`, with inactive: -4.3%.
For `O=C(OCCN1CCN(CCOCc2ccccc2)CC1)C(O)(c1ccccc1)c1ccccc1`, the activity change, negative = active is inactive: -1.51%.
Then `C[C@H]1OP(=O)(Oc2ccccc2)C[C@@H]2O[C@@H]21` (stereo not given in full), with inactive: -0.722%; and `C[C@@H]1C=CCP(=O)(Oc2ccccc2)O1` (stereo not given in full), with inactive: -0.308%; and `N#C/C(=C\c1ccc(N(CCBr)CCBr)cc1)C(N)=O`, with inactive: 1.6%.
In the case of `COC(=O)C1(C)COP(=O)(NCc2ccccc2)OC1` (stereo not given), the activity change, negative = active was inactive: 0.472%.
Turning to `c1nnnn1CCn1cnnn1`, the activity change, negative = active is inactive: -0.315%.
Take `CCOP(C)(=S)SCC(=O)NC(C)(CC)C(=O)O` (stereo not given): the activity change, negative = active is inactive: 0.158%.
In the case of `CC(C)C(=O)NC(Sc1ccccc1)C(Cl)(Cl)Cl` (stereo not given), the activity change, negative = active was inactive: 0.412%.
Turning to `CP(=O)(Nc1ccc(SC(F)(F)F)cc1)Oc1ccc(F)cc1` (stereo not given), the activity change, negative = active was inactive: 1.17%.
As for `O=[N+]([O-])c1cc([N+](=O)[O-])c(C(F)(F)F)c([N+](=O)[O-])c1O`, the activity change, negative = active was inactive: 1.19%.
The result for `COc1cccc([N+](=O)[O-])c1[N+](=O)[O-]` reads inactive: -0.0604%; that for `Cc1ccccc1NP(C)(=O)Nc1ccccc1C`, inactive: 1.01%.
With `CP(=O)(Nc1ccc2c(c1)OCCO2)Oc1ccccc1` (stereo not given), the activity change, negative = active was inactive: -13.7%.
Regarding `CN(C)CCOC(=O)C(O)(c1ccccc1)C1CCCCC1` (stereo not given), the activity change, negative = active is inactive: -0.878%.
In the case of `C[C@H]1OP(=O)(Oc2ccccc2)[C@H](O)[C@H](O)[C@H]1N=[N+]=[N-]` (stereo not given in full), the activity change, negative = active was inactive: 0.32%.
Then `CN(C)C1(CNC(=O)c2ccc(Cl)c(S(N)(=O)=O)c2)CCCCC1`, with inactive: 0.313%; and `COc1ccc(OP(C)(=O)Nc2cccc(Br)c2)cc1` (stereo not given), with inactive: -0.591%; and `O=C(OC1CN2CCC1CC2)c1cccc(Cl)c1` (stereo not given), with inactive: 0.145%.
The result for `Cc1c(C(c2ccc3c(c2)OCO3)c2c(C)n(C)n(-c3ccccc3)c2=O)c(=O)n(-c2ccccc2)n1C.O=[N+]([O-])c1cc([N+](=O)[O-])c(O)c([N+](=O)[O-])c1` reads inactive: 1.05%; that for `C(Cc1nn[nH]n1)Cc1nn[nH]n1`, inactive: -3.08%; that for `O=[N+]([O-])c1ccc(O)c(/C=N/Nc2ccc([N+](=O)[O-])cc2[N+](=O)[O-])c1`, inactive: -2.1%.
Then `CC(=O)NC(SC(=S)N(C)C)C(Cl)(Cl)Cl` (stereo not given), with inactive: -2.37%; and `O=[N+]([O-])c1ncn(CCn2cnc([N+](=O)[O-])n2)n1`, with inactive: -1.53%.
As for `CP(=O)(OC12CC3CC(CC(C3)C1)C2)OC12CC3CC(CC(C3)C1)C2`, the activity change, negative = active was inactive: 0.862%.
The result for `CCOC(=O)c1ccc(NP(C)(=O)Oc2ccc(Cl)cc2)cc1` (stereo not given) reads inactive: -3.53%.
The result for `O=P(/N=c1/nc(-c2ccccc2)n(-c2ccccc2)s1)(Nc1ccccc1)Nc1ccccc1` reads inactive: 2.82%; that for `O=C(Nc1cc([As](=O)(O)O)ccc1O)c1ccccc1`, inactive: -2.49%; that for `Cc1cc(C=O)ccc1N(CCCl)CCCl`, inactive: -2.58%.
The result for `Nc1ccc2c(ccc3cccnc32)n1.O=[N+]([O-])c1cc([N+](=O)[O-])c(O)c([N+](=O)[O-])c1` reads inactive: 4.11%; that for `O=C(O)CNc1ccc([As](=O)(O)O)cc1`, inactive: -1.77%; that for `COC(=O)C1(C)COP(=O)(Nc2ccccc2)OC1` (stereo not given), inactive: -0.978%.
`O=[N+]([O-])c1cccc(NC2=NCC(CBr)S2)c1` (stereo not given): the activity change, negative = active was inactive: -0.407%.
The result for `O=[N+]([O-])c1ncn(CCn2ncnc2[N+](=O)[O-])n1` reads inactive: 0.43%.
Consider `CC(C)(C)C(=O)NC(Sc1ccncn1)C(Cl)(Cl)Cl` (stereo not given), for which the activity change, negative = active was inactive: 1.06%.
Then `CP(=O)(Oc1ccccc1)N1CCOC1=O` (stereo not given), with inactive: -5.18%.
The result for `CCc1nc2c(n1)c1c(non1O)c1c2no[n+]1[O-]` reads inactive: 1.2%; that for `O=[N+]([O-])c1cccc2n[nH]nc12`, inactive: 0.492%.
Then `CC(=O)N1C2C3N(C(C)=O)C1C1N(C(C)=O)C(C(N1C(C)=O)N3C(C)=O)N2C(C)=O`, with inactive: -2.19%; and `COc1ccccc1OP(C)(=O)Nc1c(C)n(C)n(-c2ccccc2)c1=O` (stereo not given), with inactive: -2.02%.
With `CCN(CC)CC(O)COC(=O)C(O)(c1ccccc1)C1CCCCC1` (stereo not given), the activity change, negative = active is inactive: 0.199%.
The result for `COc1ccc(OP(C)(=O)Nc2ccc(Br)cc2)cc1` (stereo not given) reads inactive: 1.48%; that for `COc1ccc(C2=NCC(CBr)S2)cc1` (stereo not given), inactive: -0.0324%; that for `CC1CCN(C(=O)Oc2c(Cl)cc(Cl)c3cccnc23)CC1`, inactive: -9.36%.
